In patent US9783527B2, “Indazole ureas and method of use” (AbbVie Inc., priority 2014, dated 2017):

System: MIA-induced osteoarthritic pain in rats
Assay: Osteoarthritic (OA) pain induced by sodium monoiodoacetate (MIA), hind limb grip force
Conditions: rat, in vivo
Procedure: Osteoarthritic (OA) Pain Induced by Sodium Monoiodoacetate (MIA)
Pain behavior was assessed by measurement of hind limb grip force (GF) in adult osteoarthritic rats. Male Sprague Dawley rats, obtained from Charles River Laboratories, (Wilmington, Mass.), weighing 150-175 g, were injected in the unilateral knee join with a single intra-articular injection of sodium monoiodoacetate (MIA, 3 mg/rat). All rats were tested at 20 days following MIA injection. A behavioral measure of activity-induced pain was carried out. Measurements of the peak hind limb grip force were conducted by recording the maximum compressive force (CFmax), in grams of force, exerted on a hind limb strain gauge setup, in a commercially available grip force measurement system (Columbus Instruments, Columbus, Ohio).
During testing, each rat was gently restrained by grasping it around its rib cage and then allowed to grasp the wire mesh frame attached to the strain gauge. […]
For evaluating the compound effects, the hind limb grip force was conducted 20 days following the intra-articular injection of MIA. […] The % effect for each dose group was expressed as % return of response to normalcy, compared to the nave group. A percent maximal possible effect (% MPE) of testing compound was calculated according to the formula: (Treatment CFmax−Vehicle CFmax)/Vehicle CFmax]×100). […]

**Q.** `CC[C@H]1CCCN1C(=O)CN1CCN(c2cccc3c2cnn3-c2ccccc2F)C1=O` [Example 21, 1-{2-[(2S)-2-ethylpyrrolidin-1-yl]-2-oxoethyl}-3-[1-(2-fluorophenyl)-1H-indazol-4-yl]imidazolidin-2-one] was tested. Which “OA MPE (%)” value did it give?
**A.** 21%
